T1: etanercept (UniProt P20333 23-257, limits assumed)
T1 construct: extracellular domain; Bought drug; also called Enbrel; TNFR II immunoglobulin Fc fusion protein; not shown: immunoglobulin Fc
T1 sequence (looked up): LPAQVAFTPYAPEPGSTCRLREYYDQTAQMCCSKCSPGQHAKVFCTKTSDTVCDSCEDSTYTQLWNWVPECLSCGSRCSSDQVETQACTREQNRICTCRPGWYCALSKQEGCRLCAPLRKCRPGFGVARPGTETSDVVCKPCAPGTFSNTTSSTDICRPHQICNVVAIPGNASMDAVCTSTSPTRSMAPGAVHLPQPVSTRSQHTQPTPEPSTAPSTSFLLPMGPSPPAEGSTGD


Molecular target: T1, etanercept
Test: immunoprecipitation and Western blot of mixed proteins

binding result | Binder
binds | P80 PLAD-GST fusion protein (other, made in bacteria, 33 kD; also called P80 PLAD protein; P80-PLAD-GST protein) MSPILGYWKIKGLVQPTRLLLEYLEEKYEEHLYERDEGDKWRNKKFELGLEFPNLPYYIDGDVKLTQSMAIIRYIADKHNMLGGCPKERAEISMLEGAVLDIRYGVSRIAYSKDFETLKVDFLSKLPEMLKMFEDRLCHKTYLNGDHVTHPDFMLYDALDVVLYMDPMCLDAFPKLVCFKKRIEAIPQIDKYLKSSKYIAWPLQGWQATFGGGDHPPKSDLVPRGSPEFYAPEPGSTCRLREYYDQTAQMCCSKCSPGQHAKVFCTKTSDTVCDEFPGRLERPHRD
no binding | GST-only protein (other, UniProt P08515 1-218, looked up, Control; also called GST alone protein) MSPILGYWKIKGLVQPTRLLLEYLEEKYEEHLYERDEGDKWRNKKFELGLEFPNLPYYIDGDVKLTQSMAIIRYIADKHNMLGGCPKERAEISMLEGAVLDIRYGVSRIAYSKDFETLKVDFLSKLPEMLKMFEDRLCHKTYLNGDHVTHPDFMLYDALDVVLYMDPMCLDAFPKLVCFKKRIEAIPQIDKYLKSSKYIAWPLQGWQATFGGGDHPPK
